Rows were chosen to be rich in hits. Some 1.3% of all compounds tested hit in one or more screens of this group.
Rango complex inh – prevents formation of the Rango-importin beta complex. Q14974. Rango CFP/YFP FRET sensor + importin beta, 45 min. Potency, µM (highest dose often 92.2 µM), for the others: top-dose inhibition of complex formation. 0.031% of 340,000 active. AID 540263;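 note: potency is the fitted concentration of half-maximal effect; 0% = DMSO wells and 100% = buffer wells lacking importin beta; nearly all actives have a fitted effect of over 15% in size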
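Inhibition scored from the CFP 486 nm/YFP 530 nm FRET ratio 45 min after adding 0.125 microM importin beta to 50 nM Rango biosensor preincubated 5 min with compound (room temperature, PBS with DTT, Tween-20, BSA). No-importin wells as positive control.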
Rango dissoc inh – inhibitors of RanGTP-induced Rango-importin beta complex dissociation; Biochemical FRET Rango-importin beta, RanGTP-induced dissociation; Potency, µM (highest dose often 46.1 µM), for the others: top-dose activity change, negative = inhibition; 0.071% of 340,000 active; AID 540253; note: potency is the fitted concentration of half-maximal effect; % of control where 0% means no effect; nearly all actives have a fitted effect of over 45% in size
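Quantitative HTS using a FRET biosensor: 0.1 uM Rango, 0.25 uM importin beta, 0.6 uM Ran, 2 mM GTP, 0.2 uM RCC1 final, PBS with DTT, Tween-20 and BSA. Post-read taken 45 min after Ran addition.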
hERG WT inh – inhibitors of human wildtype KCNH2 potassium channel; U2OS, BacMam KCNH2, thallium flux FluxOr; active compounds read low; activity change, % at 1.84 µM; 0.37% of 340,000 active;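 active = maximum activity change below -70%; inconclusive = maximum activity change between -70% and -50%; inactive = maximum activity change above -50%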; note: % is set by controls: 0 for no effect and ±100 for the full control effect
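U2OS cells transduced with wild-type KCNH2 virus are loaded with FluxOr dye for 45 min, and thallium flux is measured in kinetic reads before and after stimulation buffer. Rate constants are normalized to DMSO controls.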
KCNH2 3.1 inh – KCNH2 3.1 (human) potassium channel inhibition. activity change, % (tested at about 1.8 µM). U2OS KCNH2 3.1, thallium flux FluxOr; active compounds read low. 0.95% of 340,000 active;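 active = maximum activity change below -70%; inconclusive = maximum activity change from -70% to -50%; inactive = maximum activity change above -50%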;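 note: thallium influx rate constant from kinetic fluorescence after stimulation buffer; % is set by controls: 0 for no effect and ±100 for the full control effect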
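FluxOr-based Tl+ influx in U2OS cells transduced with KCNH2 3.1 virus; rate constants normalized to DMSO controls.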
* hit, by the source's call; ? = inconclusive; / = not tested or not shown. Unless noted, calls come from the whole dose curve.

| Compound | Rango complex inh | Rango dissoc inh | hERG WT inh | KCNH2 3.1 inh |
| --- | --- | --- | --- | --- |
| O=C(CN1C(=O)COc2ccc(S(=O)(=O)N3CCOCC3)cc21)Nc1cccc(Cl)c1 | 3% | -8% | 20 | -4 |
| N#Cc1nc(COc2ccccc2Cl)oc1NCc1cccnc1 | ? | 21µM* | -14 | -10 |
| COc1ccc(CNc2oc(COc3ccccc3)nc2C#N)cc1 | -1% | 6% | -17 | -78* |
| COc1ccc(CCNc2oc(COc3ccccc3)nc2C#N)cc1 | 1% | 6% | 0 | 12 |
| Cc1ccc(C(=O)NNCC(=O)Nc2ccc(Cl)cc2F)cc1 | -3% | 16% | -14 | -4 |
| Cc1ccc(CN2CCC(c3cc(-c4ccc(Cl)cc4)n[nH]3)CC2)cc1 | 1% | 7% | -84* | -102* |
| Nc1nc(Cl)cc(N2CCC(c3cc(-c4ccc(Cl)cc4)n[nH]3)CC2)n1 | -4% | -10% | 1 | -74* |
| COc1ccc(-c2cc(C3CCN(Cc4cccc(C(F)(F)F)c4)CC3)[nH]n2)cc1 | -2% | 13% | 47 | / |
| Clc1ccc2nc(C3CCN(Cc4ccccc4)CC3)[nH]c2c1 | -4% | 14% | 4 | ? |
| Cc1ccc(CN2CCC(c3nc4ccc(Cl)cc4[nH]3)CC2)cc1 | 0% | 10% | -132* | -93* |
| COc1ccc(-c2cc(C3CCN(Cc4ccc([N+](=O)[O-])cc4)CC3)[nH]n2)cc1 | -1% | ? | -87* | -112* |
| Cc1ccc(-n2c(SCC(=O)N(C)C3CCS(=O)(=O)C3)nc3ccccc3c2=O)c(C)c1 (centres undefined) | 3% | 1% | 9 | 34 |
| S=c1[nH]nc(C2CC2)n1Cc1ccco1 | -2% | -3% | -323* | 7 |
| S=c1[nH]nc(Cc2ccccc2)n1Cc1ccco1 | 7% | 1% | 6 | 17 |
| Cc1nc2ccc(Cl)cc2nc(C)/c1=N\O | ? | ? | -9 | -92* |
| N#Cc1nc(-c2ccccc2Cl)oc1NCC1CCCO1 (centres undefined) | 2% | -12% | -14 | -72* |
| CCOc1ccc(-c2nc(C#N)c(NCC3CCCO3)o2)cc1 (centres undefined) | -3% | 6% | -1 | 6 |
| COc1ccc(F)cc1C(=O)C1CCCN(Cc2cccn2-c2cccnc2)C1 (centres undefined) | 1% | -20% | 14 | -19 |
| Cc1ccsc1C(=O)C1CCCN(Cc2cccn2-c2ccc(Cl)cn2)C1 (centres undefined) | 10% | 18% | -107* | -15 |
| COc1ccc(C(=O)C2CCCN(Cc3cccn3-c3ccccn3)C2)cc1F (centres undefined) | 2% | 7% | -96* | -93* |

Brought forward from above: 2 compounds, followed by the next part.
| Compound | Rango complex inh | Rango dissoc inh | hERG WT inh | KCNH2 3.1 inh |
| --- | --- | --- | --- | --- |
| Cc1ccsc1C(=O)C1CCCN(Cc2cccn2-c2ccc(Cl)cn2)C1 (centres undefined) | 10% | 18% | -107* | -15 |
| COc1ccc(C(=O)C2CCCN(Cc3cccn3-c3ccccn3)C2)cc1F (centres undefined) | 2% | 7% | -96* | -93* |
| COc1cccc(C(=O)C2CCCN(Cc3cccn3-c3ccccn3)C2)c1 (centres undefined) | -2% | -2% | ? | -101* |
| CC(C)Oc1cccc(C(=O)C2CCCN(C(=O)c3ccccn3)C2)c1 (centres undefined) | 1% | 2% | 15 | -8 |
| CC(C)Oc1cccc(C(=O)C2CCCN(Cc3cccn3-c3ccccn3)C2)c1 (centres undefined) | 1% | 8% | ? | -81* |
| COc1cccc(C(=O)C2CCCN(Cc3cccc(OCCO)c3)C2)c1 (centres undefined) | 6% | ? | 3 | 11 |
| Cc1cc(C)n2nc(SCC(=O)N3CCN(c4ccccc4)CC3)nc2n1 | 2% | 3% | 12 | 41 |
| COc1ccc(C(=O)C2CCCN(Cc3cccn3-c3nccs3)C2)cc1OC (centres undefined) | 0% | 9% | -35 | ? |
| O=C(c1ccc(Cl)cc1)C1CCCN(Cc2cccn2-c2ccccn2)C1 (centres undefined) | 0% | 13% | -109* | -105* |
| COc1ccc(C(=O)C2CCCN(Cc3cccn3-c3nccs3)C2)cc1F (centres undefined) | -2% | -1% | -103* | -117* |
| CCN(CC)CCCNC(=O)c1cc(-c2ccccc2)c(N2CCCCC2)s1 | 2% | 2% | 16 | -44 |
| Cc1ccc2c(=O)cc(C(=O)NC3CCS(=O)(=O)C3)oc2c1C (centres undefined) | -1% | ? | 3 | 19 |
| CCCCCCNc1nc(NCc2ccco2)nc(OCC)n1 | 5% | 2% | -24 | -73* |
| CC(=O)c1ccc(N2CCN(CC(O)COC(c3ccccc3)c3ccccc3C)CC2)cc1 (centres undefined) | 0% | 6% | -25 | -94* |
| CC(=O)c1ccc(N2CCN(CC(O)COC(c3ccccc3)c3ccccc3)CC2)cc1 (centres undefined) | 5% | 20% | 5 | -14 |
| CN(C(=O)COC(=O)/C=C/c1ccc(C(F)(F)F)cc1)c1c(N)n(Cc2ccccc2)c(=O)[nH]c1=O | -2% | 1% | 6 | 7 |
| Cc1ccc(/C=C2/C(=O)c3ccc(C(=O)O)cc3C2=O)o1 | ? | 11% | -12 | 3 |
| Cc1ccc(C=C2C(=O)c3ccccc3C2=O)o1 | -2% | 12% | -2 | -83* |
| O=C(NCC(c1ccccc1Cl)N1CCCC1)c1ccc(N2CCCC2=O)cc1 (centres undefined) | ? | 10% | -3 | 12 |
| CCOc1ccc(OCCC(=O)N(CCCOC)c2c(N)n(Cc3ccccc3)c(=O)[nH]c2=O)cc1 | -1% | -9% | 3 | -3 |
| Cc1cc(NC(=O)COC(=O)CC2CCCC2)c([N+](=O)[O-])cc1C | 3% | 2% | -13 | -72* |
| CCC(=O)OCC(=O)Nc1cc(C)c(C)cc1[N+](=O)[O-] | 0% | 0% | 3 | -4 |

A second format for some results above.
Molecule: COc1ccc(-c2cc(C3CCN(Cc4ccc([N+](=O)[O-])cc4)CC3)[nH]n2)cc1
  Rango complex inh: -1%; Rango dissoc inh: ?; hERG WT inh: -87*; KCNH2 3.1 inh: -112*
Molecule: COc1ccc(F)cc1C(=O)C1CCCN(Cc2cccn2-c2cccnc2)C1 (centres undefined)
  Rango complex inh: 1%; Rango dissoc inh: -20%; hERG WT inh: 14; KCNH2 3.1 inh: -19
Molecule: CN(C(=O)COC(=O)/C=C/c1ccc(C(F)(F)F)cc1)c1c(N)n(Cc2ccccc2)c(=O)[nH]c1=O
  Rango complex inh: -2%; Rango dissoc inh: 1%; hERG WT inh: 6; KCNH2 3.1 inh: 7

The list continues:
| Compound | Rango complex inh | Rango dissoc inh | hERG WT inh | KCNH2 3.1 inh |
| --- | --- | --- | --- | --- |
| O=S(=O)(c1ccc(SCCO)nc1)N1CCOCC1 | 0% | 3% | 8 | -10 |
| COCCNC(=O)c1cccc2c1C(=O)c1ccc(N3CCOCC3)cc1S2(=O)=O | 46µM* | -6% | -11 | 4 |
| O=C(CCNS(=O)(=O)c1ccccc1)OCc1nnc(-c2ccccc2)o1 | 14% | -3% | -131* | -198* |
| CC(Oc1ccccc1)C(=O)N(CCC1=CCCCC1)c1c(N)n(Cc2ccccc2)c(=O)[nH]c1=O (centres undefined) | ? | -2% | -3 | / |
| COc1ccccc1NC(=O)CC1Nc2ccccc2NC1=O (centres undefined) | ? | 12µM* | 2 | -9 |
| O=[N+]([O-])c1ccc(NCCNCCOc2nonc2-c2ccccc2)c([N+](=O)[O-])c1 | 5% | 22% | -46 | -93* |
| Cc1nonc1OCCNCCNc1ccc([N+](=O)[O-])cc1Cl | 2% | 2% | 27 | -1 |
| c1ccc2[nH]c(-c3ccnc4ccccc34)nc2c1 | -1% | -1% | 17 | 0 |
| c1ccc2c(-c3nc4ccccc4[nH]3)cccc2c1 | / | / | 16 | -122* |
| Cc1nc(-c2nc(-c3c(C(=O)NNC(=O)Nc4cccc(Cl)c4)noc3C)cs2)cs1 | -1% | 9% | -1 | 6 |
| Cc1nc(-c2nc(-c3c(C(=O)NNC(=O)Nc4ccccc4)noc3C)cs2)cs1 | 0% | -1% | -77* | -94* |
| CC1(C)Cc2c(sc(NC(=O)COc3ccc(Cl)cc3)c2C(N)=O)C(C)(C)N1 | 3% | -12% | 16 | -73* |

Assay outcomes from PubChem.
